# Target: Mitogen-activated protein kinase 1 (Homo sapiens, UniProt P28482)
# By UniProt entry, the sequences of proteins in these tests, tags left out.
# UniProt P28482, whole entry: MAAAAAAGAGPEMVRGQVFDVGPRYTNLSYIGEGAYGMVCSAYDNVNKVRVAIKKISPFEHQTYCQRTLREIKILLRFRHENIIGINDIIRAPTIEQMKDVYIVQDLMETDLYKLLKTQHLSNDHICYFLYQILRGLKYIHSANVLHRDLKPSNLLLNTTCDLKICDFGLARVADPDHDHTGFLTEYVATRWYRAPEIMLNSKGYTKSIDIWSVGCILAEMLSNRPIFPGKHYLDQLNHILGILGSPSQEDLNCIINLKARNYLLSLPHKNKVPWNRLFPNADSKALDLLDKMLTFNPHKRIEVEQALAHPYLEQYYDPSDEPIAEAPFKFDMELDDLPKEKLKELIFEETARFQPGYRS
# Assay: Inhibitory activity against human ERK2
structure (smiles),measurement,value
Nc1n[nH]c2nnc(-c3c(-c4ccccc4)nn4ccccc34)cc12,IC50,1900 nM
